Target: Prostaglandin G/H synthase 1 (Homo sapiens, UniProt P23219)

By UniProt entry, the sequences of proteins in these tests, tags left out.
UniProt P23219, whole entry: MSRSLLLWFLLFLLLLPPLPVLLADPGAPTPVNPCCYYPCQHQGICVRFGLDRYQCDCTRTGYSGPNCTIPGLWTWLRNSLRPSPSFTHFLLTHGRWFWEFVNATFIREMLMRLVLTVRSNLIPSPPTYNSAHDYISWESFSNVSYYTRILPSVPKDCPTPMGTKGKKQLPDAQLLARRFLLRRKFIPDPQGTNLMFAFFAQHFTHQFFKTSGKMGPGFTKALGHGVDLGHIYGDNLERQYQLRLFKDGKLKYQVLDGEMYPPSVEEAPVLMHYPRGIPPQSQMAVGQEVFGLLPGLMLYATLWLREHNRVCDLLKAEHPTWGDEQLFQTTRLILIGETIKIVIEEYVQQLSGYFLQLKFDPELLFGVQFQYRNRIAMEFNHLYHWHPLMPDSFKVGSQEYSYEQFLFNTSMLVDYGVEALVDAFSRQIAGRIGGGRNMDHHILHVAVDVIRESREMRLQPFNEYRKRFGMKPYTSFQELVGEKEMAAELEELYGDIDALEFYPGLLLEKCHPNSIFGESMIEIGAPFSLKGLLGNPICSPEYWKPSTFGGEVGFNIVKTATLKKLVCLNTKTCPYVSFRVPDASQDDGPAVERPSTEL

IC50: 140 µM
SMILES: Cc1onc(-c2ccccc2)c1-c1ccc(S(N)(=O)=O)cc1 [VALDECOXIB]

— ChEMBL document CHEMBL1132956 (2000)
